From US4239708A, “P-Phenylene bis[imino(thiocarbonyl)] diphosphoramidic acid esters as anthelmentic agents” (dated 1980)

These molecules were tested on Mice (assay: LD50 comparison in mice). Details: single oral or parenteral dose, 14-day observation.

| Structure (SMILES) | LD50 |
| --- | --- |
| CCOP(=O)(NC(=S)Nc1ccc(Cl)cc1NC(=S)NP(=O)(OCC)OCC)OCC | 30 mg/kg |
| CCOP(=O)(NC(=S)Nc1ccc(NC(=S)NP(=O)(OCC)OCC)c(Cl)c1)OCC | 68 mg/kg |
| CCOP(=O)(NC(=S)Nc1ccc(OC)cc1NC(=S)NP(=O)(OCC)OCC)OCC | 52 mg/kg |
| CCOP(=O)(NC(=S)Nc1ccccc1NC(=S)NP(=O)(OCC)OCC)OCC | 52 mg/kg |
| CCOP(=O)(NC(=S)Nc1ccc(NC(=S)NP(=O)(OCC)OCC)c(OC)c1)OCC | 85 mg/kg |
| CCOP(=O)(NC(=S)Nc1ccc(NC(=S)NP(=O)(OCC)OCC)cc1)OCC | > 240 mg/kg |
